In publication PMC6713091, “Exploring new structural features of the 4-[(3-methyl-4-aryl-2,3-dihydro-1,3-thiazol-2-ylidene)amino]benzenesulphonamide scaffold for the inhibition of human carbonic anhydrases” (Journal of Enzyme Inhibition and Medicinal Chemistry, 2019) one finds Ki data, which are given here for one molecule.

Sequences of proteins named here, by UniProt entry; tags and fusion partners are left off. Residues count along the entry.
UniProt P00915, whole entry: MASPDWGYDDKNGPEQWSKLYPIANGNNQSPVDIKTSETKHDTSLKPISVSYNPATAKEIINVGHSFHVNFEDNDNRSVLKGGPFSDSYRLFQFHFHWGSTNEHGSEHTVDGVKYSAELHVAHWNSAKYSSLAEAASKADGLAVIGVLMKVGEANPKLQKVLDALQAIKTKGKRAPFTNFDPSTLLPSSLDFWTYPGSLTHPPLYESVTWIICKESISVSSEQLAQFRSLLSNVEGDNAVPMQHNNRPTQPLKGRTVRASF
UniProt O43570, 25-354 limits assumed: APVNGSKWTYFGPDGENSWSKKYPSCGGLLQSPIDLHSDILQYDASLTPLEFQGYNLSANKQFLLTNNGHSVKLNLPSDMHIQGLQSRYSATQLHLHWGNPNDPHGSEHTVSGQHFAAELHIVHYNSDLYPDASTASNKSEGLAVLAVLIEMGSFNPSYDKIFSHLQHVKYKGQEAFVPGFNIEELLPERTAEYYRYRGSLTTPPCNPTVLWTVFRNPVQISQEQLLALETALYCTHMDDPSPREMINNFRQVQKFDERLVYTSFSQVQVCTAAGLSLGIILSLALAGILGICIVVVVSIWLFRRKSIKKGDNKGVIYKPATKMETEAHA

For test [1], the target named is hCA I (Homo sapiens, UniProt P00915). The test can be described thus: Carbonic anhydrase inhibition assay, hCA I. The note with it: read-out: Ki (nM) hCA I.
The target in test [2] is hCA II (Homo sapiens, UniProt P00918). As to the kind of experiment: Carbonic anhydrase inhibition assay, hCA II. The note with it: read-out: Ki (nM) hCA II.
For test [3], the target named is hCA IX (Homo sapiens, UniProt Q16790). As to the kind of experiment: Carbonic anhydrase inhibition assay, hCA IX. Particulars: read-out: Ki (nM) hCA IX.
For test [4], the target named is hCA XII (Homo sapiens, UniProt O43570). As to the kind of experiment: Carbonic anhydrase inhibition assay, hCA XII. Particulars: read-out: Ki (nM) hCA XII.

Take `Cn1c(-c2cccs2)cs/c1=N\c1ccc(S(N)(=O)=O)cc1`: the Ki amounted to 1650 nM in test [1], 30.3 nM in test [2], 1870 nM in test [3] and 36.9 nM in test [4].

The Ki is the equilibrium dissociation constant of an inhibitor or competing ligand from its target.
